Results reported in patent US20230416329A1, “A PEPTIDE WITH DISULFIDE BONDS AND INHIBITORY ACTIVITY AGAINST SERINE PROTEASES, DERIVED HYBRID PEPTIDES THEREOF, AND USES THEREOF” (INSTITUTE OF MATERIA MEDICA , CHINESE ACADEMY OF MEDICAL …, priority 2020, published 2023).

How the values were obtained:
[1] = target: chymotrypsin (Bos taurus, UniProt P00766); experiment: in vitro; conditions: isolated enzyme chymotrypsin, pH 7.8, Remaining peak area (%)/chymotrypsin
Procedure: FIG. 18. […] At different time point, 25 μL aliquots was taken out, and 10% (v/v) TFA was added to terminate the reaction.
(§1) Mix by centrifugation at 8000 rpm for 30 seconds.
(§2) Arrange a certain volume of 0.05 μg/μL chymotrypsin solution in another sterile EP. Incubate the EP tubes containing peptides and enzymes at 37° C. for 5 min, and add 3 μL of […] solution to each EP tube containing peptides and mix well. Start timing and extract 25 μL of reaction solution at 1.5, 3.0, 4.5, 6.0 and 9.0 min later, respectively. Add 3.75 μL of 10% TFA to terminate the reaction and mix well by centrifugation at 8000 rpm for 30 seconds.
(§3) Arrange a certain volume of 0.05 μg/μL chymotrypsin solution in another sterile EP. Incubate the EP tubes containing peptides and enzymes at 37° C. for 5 min, and then add 4.5 μL of chymotrypsin solution to each EP tube containing peptides and mix well. Start timing and extract 25 μL of reaction solution at 1.5, 3.0, 4.5, 6.0, 9.0, 15.0, 30.0, and 60.0 min later, respectively. Add 3.75 μL of 10% TFA to terminate the reaction and mix well by centrifugation at 8000 rpm for 30 seconds.
(§4) Referring to the experimental method in Example 5, in vitro stability of salmon Calcitonin analogs with oral administration activity to the enzymatic hydrolysis by trypsin, chymotrypsin and elastase were performed.
(§5) Referring to the experimental method in Example 5, in vitro stability of IL-17A inhibitory peptides towards the enzymatic hydrolysis by trypsin, chymotrypsin and elastase were performed.

[2] = target: T1, trypsin (Bos taurus, UniProt P00760); experiment: in vitro; conditions: isolated enzyme trypsin, pH 7.8
T1 sequence (P00760 24-246): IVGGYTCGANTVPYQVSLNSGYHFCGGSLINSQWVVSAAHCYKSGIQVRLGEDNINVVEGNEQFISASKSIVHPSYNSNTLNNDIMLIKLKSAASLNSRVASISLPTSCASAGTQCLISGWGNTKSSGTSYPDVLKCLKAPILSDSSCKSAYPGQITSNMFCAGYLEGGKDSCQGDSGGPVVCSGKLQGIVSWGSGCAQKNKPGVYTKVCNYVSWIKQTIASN
Procedure: FIG. 17. […] At different time point, 25 μL aliquots was taken out, and 10% (v/v) TFA was added to terminate the reaction.
as §1
as §2, with “0.05 μg/μL trypsin solution in” for “0.05 μg/μL chymotrypsin solution in”, “min, and separately add 6” for “min, and add 3”, “separately add 6 μL of” for “and add 3 μL of”
as §3, with “μg/μL trypsin” for “μg/μL chymotrypsin”, “and” for “and then”, “add 9” for “add 4.5”, “of trypsin” for “of chymotrypsin”
as §4, §5

[3] = target: NEP24.11 (Homo sapiens, UniProt P08473); experiment: Tolerance of GLP-1 and its analogues to NEP24.11 (RP-HPLC remaining peak area); format: in vitro ADME; conditions: peptide 30 μM, NEP24.11 1.0 ng/μL, 37° C.; for Remaining peak area (%)/NEP24.11: 0.0 h; for remaining at 0.5 h, 30 μM / remaining at 2 h, 30 μM / remaining at 4 h, 30 μM / remaining at 8 h, 30 μM: isolated NEP24.11 enzyme in buffer; for remaining at 0.5 h, 30 μM: pH 7.4, 0.5 h; for remaining at 2 h, 30 μM: pH 7.4, 2.0 h; for remaining at 4 h, 30 μM: pH 7.4, 4.0 h; for remaining at 8 h, 30 μM: pH 7.4, 8.0 h
Procedure: as §1
Arrange a certain volume of 0.04 μg/μL NEP24.11 enzyme solution in another sterile EP.

[4] = target: DPP-IV (Homo sapiens, UniProt P27487); experiment: Tolerance of GLP-1 and its analogues to DPP-IV (RP-HPLC remaining peak area); format: in vitro ADME; conditions: peptide 25 μM, DPP-IV 0.5 ng/μL, 37° C.; for Remaining peak area (%)/DPP-IV: 0.0 h; for remaining at 0.5 h, 25 μM / remaining at 2 h, 25 μM / remaining at 4 h, 25 μM / remaining at 8 h, 25 μM / remaining at 12 h, 25 μM: isolated DPP-IV enzyme in buffer, pH 8
Procedure: as §1
(2) Arrange a certain volume of 0.005 μg/μL DPP-IV solution in another sterile EP.

remaining at 0.025 h, 60 μM [1]	remaining at 0.05 h, 60 μM [1]	remaining at 0.075 h, 60 μM [1]	remaining at 0.1 h, 60 μM [1]	remaining at 0.15 h, 60 μM [1]	remaining at 0.025 h, 60 μM [2]	remaining at 0.05 h, 60 μM [2]	remaining at 0.075 h, 60 μM [2]	remaining at 0.1 h, 60 μM [2]	remaining at 0.15 h, 60 μM [2]	Compound	Remaining peak area (%)/NEP24.11 [3]	remaining at 0.5 h, 30 μM [3]	remaining at 2 h, 30 μM [3]	remaining at 4 h, 30 μM [3]	remaining at 8 h, 30 μM [3]	Remaining peak area (%)/DPP-IV [4]	remaining at 0.5 h, 25 μM [4]	remaining at 2 h, 25 μM [4]	remaining at 4 h, 25 μM [4]	remaining at 8 h, 25 μM [4]	further results
58 ± 1.2%	60.1 ± 2.7%	55.6 ± 2.9%	55.1 ± 3.6%	52.6 ± 1.7%	60.9 ± 1.1%	52.8 ± 0.9%	53.6 ± 9.7%	41.6 ± 3.6%	27.6 ± 0.1%	CC[C@H](C)[C@H](NC(=O)[C@H](Cc1ccccc1)NC(=O)[C@H](CCC(=O)O)NC(=O)[C@H](CCCCN)NC(=O)[C@H](C)NC(=O)[C@H](C)NC(=O)[C@H](CCC(N)=O)NC(=O)CNC(=O)[C@H](CCC(=O)O)NC(=O)[C@H](CC(C)C)NC(=O)[C@H](Cc1ccc(O)cc1)NC(=O)[C@H](CO)NC(=O)[C@H](CO)NC(=O)[C@@H](NC(=O)[C@H](CC(=O)O)NC(=O)[C@H](CO)NC(=O)[C@@H](NC(=O)[C@H](Cc1ccccc1)NC(=O)[C@@H](NC(=O)CNC(=O)[C@H](CCC(=O)O)NC(=O)[C@H](C)NC(=O)[C@H](Cc1c[nH]cn1)NC(=O)CNC(=O)CNC(=O)[C@@H]1CSSC[C@H](NC(=O)CNC(=O)CN)C(=O)N2CCC[C@H]2C(=O)N[C@@H](CCCCN)C(=O)N[C@@H]([C@@H](C)CC)C(=O)N[C@@H](CC(C)C)C(=O)N[C@@H](CCC(N)=O)C(=O)N[C@@H](CCCNC(=N)N)C(=O)N1)[C@@H](C)O)[C@@H](C)O)C(C)C)C(=O)N[C@@H](C)C(=O)N[C@@H](Cc1c[nH]c2ccccc12)C(=O)N[C@@H](CC(C)C)C(=O)N[C@H](C(=O)N[C@@H](CCCCN)C(=O)NCC(=O)N[C@@H](CCCNC(=N)N)C(=O)NCC(=O)NCC(=O)N[C@@H](CCCCN)C(=O)O)C(C)C [T-GLP-1]	100.0 ± 0.0%	65.8 ± 10.3%	43.3 ± 8%	48.5 ± 5.6%	40.3 ± 3.6%	100.0 ± 0.0%	67.7 ± 0.8%	69.9 ± 2.2%	67.5 ± 3.5%	68.8 ± 1.5%	remaining at 12 h, 25 μM [4]: 68.2 ± 2.6%
77.3 ± 7%	83.8 ± 3.6%	77.9 ± 3.1%	77.8 ± 1%	77.4 ± 1.4%	51.9 ± 3.7%	36 ± 1.4%	22.4 ± 1.4%	14.1 ± 1.5%	4.7 ± 0.8%	CC[C@H](C)[C@H](NC(=O)[C@H](Cc1ccccc1)NC(=O)[C@H](CCC(=O)O)NC(=O)[C@H](CCCCN)NC(=O)[C@H](C)NC(=O)[C@H](C)NC(=O)[C@H](CCC(N)=O)NC(=O)CNC(=O)[C@H](CCC(=O)O)NC(=O)[C@H](CC(C)C)NC(=O)[C@H](Cc1ccc(O)cc1)NC(=O)[C@H](CO)NC(=O)[C@H](CO)NC(=O)[C@@H](NC(=O)[C@H](CC(=O)O)NC(=O)[C@H](CO)NC(=O)[C@@H](NC(=O)[C@H](Cc1ccccc1)NC(=O)[C@@H](NC(=O)CNC(=O)[C@H](CCC(=O)O)NC(=O)[C@H](C)NC(=O)[C@H](Cc1c[nH]cn1)NC(=O)CNC(=O)CNC(=O)[C@@H](NC(=O)[C@@H]1CCCN1C(=O)[C@@H](NC(=O)CN)[C@@H](C)CC)[C@@H](C)CC)[C@@H](C)O)[C@@H](C)O)C(C)C)C(=O)N[C@@H](C)C(=O)N[C@@H](Cc1c[nH]c2ccccc12)C(=O)N[C@@H](CC(C)C)C(=O)N[C@H](C(=O)N[C@@H](CCCCN)C(=O)NCC(=O)N[C@@H](CCCNC(=N)N)C(=O)NCC(=O)NCC(=O)N[C@@H](CCCCN)C(=O)O)C(C)C [D-GLP-1]	100.0 ± 0.0%	77.8 ± 7.8%	53.7 ± 8.9%	49 ± 7.3%	31.3 ± 6.4%	100.0 ± 0.0%	78.1 ± 1.8%	82.2 ± 3.4%	79.8 ± 3.4%	82.6 ± 2%	remaining prototype peptide after DPP-IV treatment ([4]; 12 hours): 85.6%; remaining at 12 h, 25 μM [4]: 85.6 ± 2%
